Read-outs that look alike come from different tables or passages of the source.
Key:
[1] = molecular target: T1, human Bradykinin B1 Receptor membrane fraction (Homo sapiens, UniProt P46663); assay: Heterogeneous BSI assay with membrane bound to channel surface (Experiment 1); format: binding
T1 construct: purchased PerkinElmer ES-091-M400UA; CHO is inferred from the CHO cell membranes used as control
T1 sequence (P46663 1-353): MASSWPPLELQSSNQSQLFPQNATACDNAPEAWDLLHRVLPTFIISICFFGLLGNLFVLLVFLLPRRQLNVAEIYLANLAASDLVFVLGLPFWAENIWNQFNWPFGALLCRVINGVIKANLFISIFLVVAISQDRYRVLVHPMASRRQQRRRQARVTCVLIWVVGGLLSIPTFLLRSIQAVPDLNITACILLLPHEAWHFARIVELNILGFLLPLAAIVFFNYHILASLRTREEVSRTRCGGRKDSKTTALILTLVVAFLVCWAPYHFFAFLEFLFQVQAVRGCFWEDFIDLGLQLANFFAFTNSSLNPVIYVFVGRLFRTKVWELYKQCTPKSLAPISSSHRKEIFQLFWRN
Text: The system can be used to determine the on- and off-kinetics of binding with a flowing system. In the flowing system, one molecule can be attached to the surface with chemistry. A running buffer is then flowed over the activated surface. Once the signal is stable, a second molecule that binds to the first is flown thought the system in increasing concentrations. When the sample interacts with the surface, there is an increase in signal until equilibrium is reached. When the running buffer is flowed back through, the bound molecules disassociate and the signal decreases and then equilibrates on the running buffer. For the reaction of the two molecules, an increase in signal is observed and then equilibrates. For this part of the curve, a ‘one phase exponential association’ equation is used [Y=Ymax*(1−exp(−K*X))] where K is the K observed. For the dissociation of the two molecules, a decrease in signal is observed until an equilibrium is reached. For this part of the curve, a ‘one phase exponential decay’ equation is used [Y=Span*exp(−K*X)+Plateau], where the K is the K off. The K on value is calculated by subtracting the K off from the K observed then dividing the value by the concentration of the binding ligand {Kon=(Kobs−Koff)/[ligand]}. The KD value is collected by dividing the K off by the K on [KD=Koff/Kon]. […]

[2] = molecular target: T2, rabbit B1 receptor (Oryctolagus cuniculus, UniProt P48748); details: cited from earlier work
T2 sequence (P48748 1-352): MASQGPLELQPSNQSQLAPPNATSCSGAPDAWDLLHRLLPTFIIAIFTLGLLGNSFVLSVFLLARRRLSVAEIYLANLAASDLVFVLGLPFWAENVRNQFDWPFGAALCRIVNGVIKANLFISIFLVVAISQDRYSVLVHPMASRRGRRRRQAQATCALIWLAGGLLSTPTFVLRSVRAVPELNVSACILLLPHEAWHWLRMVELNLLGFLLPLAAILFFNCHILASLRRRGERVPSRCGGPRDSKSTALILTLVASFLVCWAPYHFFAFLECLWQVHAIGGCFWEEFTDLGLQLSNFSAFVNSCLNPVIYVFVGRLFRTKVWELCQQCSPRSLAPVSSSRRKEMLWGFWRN

[3] = molecular target: T3, Bradykinin B1 Receptor membranes (Homo sapiens, UniProt P46663); assay: Homogeneous BSI assay employing laminar flow, bare capillary (Experiment 3); format: binding; details: bolus/laminar flow, same concentrations as Experiment 2 (FIG. 14)
T3 construct: purchased PerkinElmer ES-091-M400UA; CHO is inferred from the CHO cell membranes used as control
T3 sequence (P46663 1-353): T1 sequence (P46663 1-353)
Procedure: (§1) This assay makes use of the following commercially available reagents: Bradykinin B1 Receptor PerkinElmer Product number ES-091-M400UA. MEMBRANES: 1×400 units/1000 μl frozen aliquot. PACKAGING BUFFER: 50 mM Tris-HCl pH 7.4, 0.5 mM EDTA, 10 mM MgCl2, 10% sucrose STORAGE CONDITIONS: Store at −80° C. Avoid repeated freeze-thaw. UNIT SIZE: 50 μg protein/unit. EXPRESSION LEVEL (BMax): 0.24 pmol/mg membrane protein. PROTEIN CONCENTRATION: 20 mg/ml.
(§2) The interaction of the Lys-(Des-Arg9)-Bradykinin and the membranes are set up in a homogeneous manner. The Lys-(Des-Arg9)-Bradykinin is serially diluted to 50 nM to 6 pM and then split. The membranes are diluted to 20 μg/mL and then mixed 1:1 with one set of the split Lys-(Des-Arg9)-Bradykinin concentrations. Concentration of the samples and membranes are therefore halved to 25 nM to 3 pM and 10 μg/mL respectively. The mixture was then allowed to incubate for six hours. Buffer was added 1:1 to the other set to form the controls without the analyte.
Sample is prepared as described in Experiment 2.
A bare capillary is inserted into the system. The running buffer is flown through the capillary until a stable signal is obtained. The homogeneous samples (both control and assay) are then injected into the system and the change from baseline is monitored. The signal obtained from the control samples is subtracted from the assay.

[4] = molecular target: T3, Bradykinin B1 Receptor membranes; assay: Homogeneous BSI assay with passivated surface (Experiment 2); details: membranes 10 μg/mL, six hours incubation, capillary passivated with CHO cell membranes (FIG. 12); read-out: Kd, one site binding (hyperbola) fit
Procedure: as §1
The passivated surface is prepared as follows. A surface comprising a lipid-like layer is made using the same protocol as described above for the heterogeneous assay in (experiment 1) section 4.2.1.
Then, a control membrane preparation (one that will not bind the target analyte) is bound to the surface, again as described above for creating the surface for the heterogeneous assay. This surface is used for the experiments.
as §2, with “Buffer was added 1:1 to the other set to form the controls without the analyte.” left out

[5] = molecular target: T4, Human B1 receptor (Homo sapiens, UniProt P46663); details: cited from earlier work
T4 sequence (P46663 1-353): T1 sequence (P46663 1-353)

Lys-(Des-Arg^9)-Bradykinin/Lys-(Des-Arg^10)-kallidin [Lys-(Des-Arg9)-Bradykinin]
Kd ([1]; flowing system, kinetic analysis KD=Koff/Kon (FIG. 10), control subtracted, read-out: Kd calculated from Kobs and Koff): 0.41 nM
Kd ([1]; maximum signal of each concentration plotted versus concentration (FIG. 9), control CHO membranes subtracted, read-out: endpoint analysis, one site binding fit value): 0.053 nM
fold higher affinity for Lys-BK (1-8) relative to BK(1-8) [2]: ~150 fold
Kd [3]: 0.15 nM
Kd [4]: 0.18 nM
fold higher affinity for Lys-BK (1-8) relative to BK(1-8) [5]: approximately 2,000 fold

— patent US8450118B2, “Method for detecting binding interactions between membrane proteins and analytes in a homogenous assay” (Molecular Sensing, Inc., priority 2009, dated 2013)
